Assay [1] deals with T1, Prolyl endopeptidase (Sus scrofa, UniProt P23687). The experiment in a line: In vitro inhibitory activity against prolyl oligopeptidase (POP) from pig brain; value ranges from (38-62).
For assay [2], the target named is T1, Prolyl endopeptidase.

By UniProt entry, the sequences of proteins in these tests, tags left out. Where a name states a change or a piece, a line headed by the entry shows the natural chain unless it says otherwise.
UniProt P23687: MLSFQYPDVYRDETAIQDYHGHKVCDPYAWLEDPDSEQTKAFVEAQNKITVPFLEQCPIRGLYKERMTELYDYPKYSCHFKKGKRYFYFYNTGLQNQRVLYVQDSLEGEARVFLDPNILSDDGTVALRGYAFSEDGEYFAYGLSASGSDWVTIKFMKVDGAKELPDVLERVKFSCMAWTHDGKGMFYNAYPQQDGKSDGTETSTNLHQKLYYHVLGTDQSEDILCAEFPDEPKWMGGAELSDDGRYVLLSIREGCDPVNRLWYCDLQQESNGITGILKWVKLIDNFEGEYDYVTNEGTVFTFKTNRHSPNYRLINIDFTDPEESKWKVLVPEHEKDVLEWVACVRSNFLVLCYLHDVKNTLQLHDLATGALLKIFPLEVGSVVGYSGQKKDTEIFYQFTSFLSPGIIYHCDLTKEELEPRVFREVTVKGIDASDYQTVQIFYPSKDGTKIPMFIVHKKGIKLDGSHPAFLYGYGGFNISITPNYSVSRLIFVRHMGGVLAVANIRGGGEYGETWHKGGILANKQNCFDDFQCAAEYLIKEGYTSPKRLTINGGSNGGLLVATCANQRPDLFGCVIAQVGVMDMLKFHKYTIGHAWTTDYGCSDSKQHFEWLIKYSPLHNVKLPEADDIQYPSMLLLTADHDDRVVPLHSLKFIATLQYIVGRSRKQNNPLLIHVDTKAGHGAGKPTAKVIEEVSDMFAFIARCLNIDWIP

With `O=C(C1CCCN1C(=O)CCCC(=O)N1CCC[C@H]1C(=O)N1CCCC1)N1CCCC1` (some centres not stated), at Prolyl endopeptidase [1], the IC50 (commonly the concentration at which inhibition is half-maximal) worked out at 48 nM.
Compound `N#C[C@@H]1CCCN1C(=O)[C@@H]1CCCN1C(=O)c1cccc(C(=O)N2CCCC2C(=O)N2CCCC2)c1` (some centres not stated) registered a 50% inhibitory concentration (IC50) against Prolyl endopeptidase [2] of 1.5 nM.
